# Results taken from patent publication US9216999B2, “Substituted pyrrolo[2,3-h][1,6]naphthyridines and compositions thereof as JAK inhibitors” (priority 2011, dated 2015).
# The chains behind the UniProt entries cited, without tags or fusion partners. Where a name states a change or a piece, a line headed by the entry shows the natural chain unless it says otherwise.
# UniProt P52333: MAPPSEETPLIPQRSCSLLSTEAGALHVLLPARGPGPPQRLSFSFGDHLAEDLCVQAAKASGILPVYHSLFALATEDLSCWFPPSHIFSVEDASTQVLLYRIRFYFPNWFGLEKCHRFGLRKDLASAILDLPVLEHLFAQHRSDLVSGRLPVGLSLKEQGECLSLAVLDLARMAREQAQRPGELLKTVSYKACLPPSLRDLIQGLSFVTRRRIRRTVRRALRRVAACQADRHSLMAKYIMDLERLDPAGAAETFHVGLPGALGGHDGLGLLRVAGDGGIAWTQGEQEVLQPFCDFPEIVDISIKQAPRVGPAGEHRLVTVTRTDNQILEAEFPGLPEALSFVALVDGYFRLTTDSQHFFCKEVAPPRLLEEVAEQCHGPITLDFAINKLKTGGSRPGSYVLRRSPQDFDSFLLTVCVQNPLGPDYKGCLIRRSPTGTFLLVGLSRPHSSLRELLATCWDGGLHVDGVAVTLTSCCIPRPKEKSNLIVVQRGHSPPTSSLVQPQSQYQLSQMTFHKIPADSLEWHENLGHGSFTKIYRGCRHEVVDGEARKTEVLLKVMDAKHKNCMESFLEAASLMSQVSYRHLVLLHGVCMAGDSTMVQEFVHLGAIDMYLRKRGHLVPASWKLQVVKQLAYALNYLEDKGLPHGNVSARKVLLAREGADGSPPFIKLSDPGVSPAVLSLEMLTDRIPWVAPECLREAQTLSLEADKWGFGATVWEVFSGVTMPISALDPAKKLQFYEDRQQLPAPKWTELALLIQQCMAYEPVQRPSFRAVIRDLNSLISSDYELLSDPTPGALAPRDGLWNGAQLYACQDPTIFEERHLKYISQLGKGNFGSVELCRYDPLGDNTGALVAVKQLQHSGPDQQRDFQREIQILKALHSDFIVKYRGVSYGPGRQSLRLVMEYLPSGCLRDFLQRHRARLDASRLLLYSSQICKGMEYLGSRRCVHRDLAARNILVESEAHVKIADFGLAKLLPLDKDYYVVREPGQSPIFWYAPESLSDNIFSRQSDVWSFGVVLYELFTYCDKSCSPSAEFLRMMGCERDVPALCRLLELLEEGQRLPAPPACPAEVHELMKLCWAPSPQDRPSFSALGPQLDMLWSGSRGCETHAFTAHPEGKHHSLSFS
# Like-named read-outs stand apart in the source and are kept apart here.
# Key:
# JAK1 = JAK1 (Homo sapiens (Human), UniProt P23458); assay: Enzyme assay (Assay Example^a 1), JAK1; type: biochemical; details: ATP 100 μM
# JAK2 [1] = biological target: T1, JAK2 (Homo sapiens (Human), UniProt O60674); assay: Enzyme assay (Assay Example^a 1), JAK2; type: biochemical
# JAK3 = JAK3 (Homo sapiens (Human), UniProt P52333); assay: Enzyme assay (Assay Example^a 1), JAK3; type: biochemical
# JAK2 [2] = biological target: T1, JAK2; assay: JAK2 enzyme assay (Assay Example^b 1)
# [3] = IC50 (μM) JAK2, Table^b 80, ATP 100 μM
# [4] = IC50 (μM) JAK2, Table^b 79, ATP 100 μM
# [5] = ATP 100 μM, read-out: IC50 (μM) JAK2
structure (smiles),measurement,setting,value
CC(C)(C)OC(=O)N1CCCC(c2nnn3cnc4[nH]ccc4c23)C1 (racemic) [compound 13],IC50,JAK1; Table^a 154,0.12 µM
same,IC50,JAK2 [1],0.25 µM
same,IC50,JAK3,> 1 µM
c1cc2c(ncn3nnc(C4CCCNC4)c23)[nH]1 (racemic) [compound 15],IC50,JAK1; Table^a 154,0.29 µM
c1cncc(CN2CCCC(c3nnn4cnc5[nH]ccc5c34)C2)c1 (racemic) [compound 18],IC50,JAK1; Table^a 154,0.21 µM
same,IC50,JAK3,> 1 µM
O=C(Nc1nncs1)N1CCCC(c2nnn3cnc4[nH]ccc4c23)C1 (racemic) [compound 20],IC50,"JAK2 [1]; ATP 100 μM, Table^a 154, read-out: IC50 (μM) JAK2",0.032 µM
same,IC50,JAK3,0.33 µM
C[C@@H]1CCN(C2CCCC2)C[C@@H]1n1ccc(=O)c2cnc3[nH]ccc3c21 (racemic) [compound 47],IC50,JAK2 [2]; [3],0.23 µM
"OC(CN1CCC(c2nnn3cnc4[nH]ccc4c23)CC1)c1ccc(C(F)(F)F)cc1 (racemic) [compound 212, 2-[4-(7H-Pyrrolo[3,2-e][1,2,3]triazolo[1,5-c]pyrimidin-1-yl)piperidin-1-yl]-1-[4-(trifluoromethyl)phenyl]ethanol]",IC50,JAK1; Table^a 154,0.0054 µM
"CC1CCN(C(=O)C2CCC(C(C)(C)C)CC2)CC1n1ccc(=O)c2cnc3[nH]ccc3c21 (single isomer, unassigned) [Synthetic Example^b 48a, 1-{1-[4-(tert-Butyl)cyclohexanecarbonyl]-4-methylpiperidin-3-yl}-1H-pyrrolo[2,3-h][1,6]naphthyridin-4(7H)-one]",IC50,JAK2 [2]; [3],1 µM
"CC1CCN(C(=O)C2CCC(C(C)(C)C)CC2)CC1n1ccc(=O)c2cnc3[nH]ccc3c21 (single isomer, unassigned) [Synthetic Example^b 48b, 1-{1-[4-(tert-Butyl)cyclohexanecarbonyl]-4-methylpiperidin-3-yl}-1H-pyrrolo[2,3-h][1,6]naphthyridin-4(7H)-one]",IC50,JAK2 [2]; [3],0.46 µM
"N#CCC[C@H]1CC[C@H](n2c(=O)[nH]c(=O)c3cnc4[nH]ccc4c32)CC1 [Synthetic Example^b 134, 3-[trans-4-(2,4-Dioxo-2,3,4,7-tetrahydro-1H-pyrrolo[3′,2′:5,6]pyrido[4,3-d]pyrimidin-1-yl)cyclohexyl]propanenitrile]",IC50,"JAK2 [2]; IC50 (μM) JAK2, ATP 100 μM",0.025 µM
CC1OCN(C2CCCCC2)c2c1cnc1[nH]ccc21 (stereo not shown) [compound 1],IC50,JAK2 [2]; [4],2.2 µM
OC[C@H]1CC[C@H](c2nnn3cnc4[nH]ccc4c23)CC1 [compound 10],IC50,JAK1,0.0031 µM
same,IC50,JAK2 [1]; [5],0.019 µM
O=S1(=O)C=CN(C2CCCCC2)c2c1cnc1[nH]ccc21 [compound 12],IC50,JAK2 [2]; [4],0.46 µM
CC(C)(C)OC(=O)N[C@H]1CC[C@H](c2nnn3cnc4[nH]ccc4c23)CC1 [compound 59],IC50,JAK1; Table^a 154,0.032 µM
O=C(OCc1ccccc1)N1CCC(c2ncn3cnc4[nH]ccc4c23)CC1 [compound 84],IC50,JAK1; Table^a 154,0.018 µM
same,IC50,JAK3; read-out: IC50 (μM) JAK3,0.62 µM
N#Cc1ccc(NC2CCC(c3nnn4cnc5[nH]ccc5c34)CC2)c(F)c1 (stereo not shown) [compound 129],IC50,JAK2 [1]; read-out: IC50 (μM) JAK2,0.078 µM
same,IC50,JAK3; read-out: IC50 (μM) JAK3,> 1 µM
O=c1[nH]c(=O)n([C@H]2CC[C@H](CN3CC(O)(C(F)(F)F)C3)CC2)c2c1cnc1[nH]ccc12 [compound 129],IC50,JAK2 [2]; IC50 (μM) JAK2,0.18 µM
O=CC1CCC(n2c(=O)[nH]c(=O)c3cnc4[nH]ccc4c32)CC1 (stereo not shown) [compound 133],IC50,"JAK2 [2]; IC50 (μM) JAK2, ATP 100 μM",0.27 µM
"Fc1ccc(C2(NC[C@H]3CC[C@H](c4nnn5cnc6[nH]ccc6c45)CC3)COC2)cc1 [compound 322, N-{[trans-4-(7H-pyrrolo[3,2-e][1,2,3]triazolo[1,5-c]pyrimidin-1-yl)cyclohexyl]methyl}-3-(4-fluorophenyl)oxetan-3-amine]",IC50,JAK2 [1]; [5],0.0071 µM
"Fc1ccc(C2(NC[C@H]3CC[C@H](c4nnn5cnc6[nH]ccc6c45)CC3)CC2)cc1 [compound 323, N-{[trans-4-(7H-pyrrolo[3,2-e][1,2,3]triazolo[1,5-c]pyrimidin-1-yl)cyclohexyl]methyl}-1-(4-fluorophenyl)cyclopropanamine]",IC50,JAK1,0.0051 µM
"OC[C@H]1CC[C@@H](c2nnn3cnc4[nH]ccc4c23)CC1 [compound 401, [cis-4-(7H-Pyrrolo[3,2-e][1,2,3]triazolo[1,5-c]pyrimidin-1-yl)cyclohexyl]methanol]",IC50,JAK1,0.012 µM
same,IC50,JAK2 [1]; [5],0.036 µM
